Data as given in patent US7074770B1, “Method of DNA vaccination” (SmithKline Beecham Corporation, priority 1998, dated 2006).

Tested on: splenocytes stimulated with S6C-E4 / S6C-VE4 (EBNA-4)
Type: in vivo, mice
Conditions: i.m. E4, tucaresol s.c., FIG. 4

Q: `O=Cc1c(O)cccc1OCc1ccc(C(=O)O)cc1` [tucaresol, 4-(2-formyl-3-hydroxyphenoxymethyl)benzoic acid] was tested. Which splenocyte proliferative response did it give?
A: Its splenocyte proliferative response is “much stronger proliferative response”.
